Consider two compounds from patent US20070281909A1, “Creatine phosphate prodrugs, compositions and uses thereof” (XenoPort, Inc., priority 2006, published 2007).

By UniProt entry, the sequences of proteins in these tests, tags left out. Where a name states a change or a piece, a line headed by the entry shows the natural chain unless it says otherwise.
UniProt Q9Y289: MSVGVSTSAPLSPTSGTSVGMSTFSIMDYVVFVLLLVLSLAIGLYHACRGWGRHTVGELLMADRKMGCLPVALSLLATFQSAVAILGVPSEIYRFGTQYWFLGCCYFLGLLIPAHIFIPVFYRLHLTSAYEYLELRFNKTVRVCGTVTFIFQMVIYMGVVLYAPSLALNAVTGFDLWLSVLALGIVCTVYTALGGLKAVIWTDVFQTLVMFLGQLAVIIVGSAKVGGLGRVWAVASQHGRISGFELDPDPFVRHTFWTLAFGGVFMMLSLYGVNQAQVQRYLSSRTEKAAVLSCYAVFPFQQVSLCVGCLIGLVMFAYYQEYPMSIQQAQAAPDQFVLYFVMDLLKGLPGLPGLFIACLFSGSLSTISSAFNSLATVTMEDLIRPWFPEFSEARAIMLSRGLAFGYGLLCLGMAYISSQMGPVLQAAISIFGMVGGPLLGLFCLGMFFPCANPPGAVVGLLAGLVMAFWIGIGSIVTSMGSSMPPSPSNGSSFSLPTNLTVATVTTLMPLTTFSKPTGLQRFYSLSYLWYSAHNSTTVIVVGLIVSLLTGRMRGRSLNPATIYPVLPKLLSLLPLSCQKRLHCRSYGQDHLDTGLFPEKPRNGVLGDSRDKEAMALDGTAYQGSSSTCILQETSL

Data set [1] in a line: Enzymatic stability / cleavage in Caco-2 homogenate S9. The following applies: for Enzymatic Stability, Caco-2: Caco-2 S9 homogenate pH 7.4, 37° C.
Data set [2] deals with SMVT transporter (Homo sapiens, UniProt Q9Y289). The data set is described as follows: Uptake in HEK cells induced / not induced to express SMVT. The following applies: FIG. 8; induced vs not induced cells.
Data set [3] deals with HEK293 cells. Nature of the data set: Restoration of cellular energy homeostasis following sodium azide treatment. Format: cell-based, human. The following applies: azide 20 minutes, then compound or control media 20 minutes; FIG. 12.
The nature of data set [4]: Chemical stability in pH buffers. The note with it: for Chemical Stability, pH 7.4 / Chemical Stability, pH 8.0: 0.1M Tris-HCl, 0.5M NaCl; for Chemical Stability, pH 2.0: 0.1M potassium phosphate, 0.5 M NaCl.
A short description of data set [5]: Prodrug stability in rat plasma.
A short description of data set [6]: Rat liver S9 stability.
For data set [7], the system named is HEK cells expressing SMVT. The data set is described as follows: Effect of treatment on the creatine kinase system (intracellular creatine phosphate, ATP, creatine). The note with it: for Percent Increase in Intracellular Concentrations, ATP / Percent Increase in Intracellular Concentrations, Creatine / Percent Increase in Intracellular Concentrations, Creatine Phosphate: 100 μM, relative to buffer. Format: cell-based, human.

Data set [8] concerns H9C2 cells. The data set is described as follows: Protection against 3-nitropropionic acid induced toxicity (ATP luminescence). The format is cell-based, rat. The following applies: incubated 2.5 hours with compound, then 3-NP for 20 hours; FIG. 11.

For “[[[(Bis(butylcarbonyloxymethoxy)phosphoryl)amino](imino)methyl](methyl)amino]acetic acid”, the “Enzymatic cleavage and release of creatine phosphate in Caco-2 S9 homogenates” value in data set [1] (FIG. 7) is “first enzymatically cleaved to compound (15), and then cleaved to release creatine phosphate”. The “Enzymatic Stability, Caco-2” value was 100.0 in data set [1] (Time 0 h); 7.3 in data set [1] (Time 0.5 h); 0.3 in data set [1] (Time 1 h); 0.1 in data set [1] (Time 3 h); 0.0 in data set [1] (Time 6 h). Further, the “Transport across the plasma membrane of HEK cells via the SMVT transporter” value in data set [2] is listed as “is transported across the plasma membrane of HEK cells via the SMVT transporter”. The “Reversal of azide-induced ATP depletion” value in data set [3] was “reverses azide-induced ATP depletion”. In addition, the “Chemical Stability, pH 7.4” value is 100.0 in data set [4] (Time 0 h); 102.9 in data set [4] (Time 0.5 h); 109.4 in data set [4] (Time 1 h); 92.1 in data set [4] (Time 3 h); 88.7 in data set [4] (Time 6 h). Moreover, the “Chemical Stability, pH 8.0” value in data set [4] (Time 0 h) is 100.0; in data set [4] (Time 0.5 h), 99.8; in data set [4] (Time 1 h), 106.1; in data set [4] (Time 3 h), 84.8; in data set [4] (Time 6 h), 62.0. For the same compound, the “Chemical Stability, pH 2.0” value in data set [4] (Time 0 h) came to 100.0; in data set [4] (Time 0.5 h), 101.1; in data set [4] (Time 1 h), 96.2; in data set [4] (Time 3 h), 60.5; in data set [4] (Time 6 h), 38.5. The “Enzymatic Stability, Rat Plasma” value is 100.0 in data set [5] (Time 0 h); 53.0 in data set [5] (Time 0.5 h); 22.9 in data set [5] (Time 1 h); 0.4 in data set [5] (Time 3 h); 0.1 in data set [5] (Time 6 h). The “Enzymatic Stability, Rat Liver S9” value in data set [6] (Time 0 h) is reported as 100.0; in data set [6] (Time 0.5 h) it was 83.8; in data set [6] (Time 1 h), 58.0; in data set [6] (Time 3 h), 2.4; in data set [6] (Time 6 h) it was 0.1. The “Percent Increase in Intracellular Concentrations, ATP” value in data set [7] (After 1 Hour) was 42%; in data set [7] (After 3 Hours), 55%. The “Percent Increase in Intracellular Concentrations, Creatine” value in data set [7] (After 1 Hour) came to 75%; in data set [7] (After 3 Hours) it was 190%. The “Percent Increase in Intracellular Concentrations, Creatine Phosphate” value in data set [7] (After 1 Hour) came out at 65%; in data set [7] (After 3 Hours) it was 130%. Further, the “Intracellular concentrations of creatine phosphate, ATP, and creatine compared to treatment with either creatine or creatine phosphate” value in data set [7] (summary of Table 4 and Table 5) is “an increase in intracellular concentrations of creatine phosphate, ATP, and creatine”.

Take `CN(CC(=O)O)C(=N)NP(=O)(OCOC(=O)CCCc1ccccc1)OCOC(=O)CCCc1ccccc1`: the “Protection against 3-NP toxicity (ATP luminescence)” value in data set [8] is listed as “protects H9C2 cells against 3-NP toxicity”.
